Experimental findings from PubChem BioAssay AID463187 (University of Pittsburgh Molecular Library Screening Center, 2010) are described below.

Amino acid sequences for entries named in this document (tags omitted). A change or cut given only in a name is not applied to a line headed by its entry.
UniProt P08631: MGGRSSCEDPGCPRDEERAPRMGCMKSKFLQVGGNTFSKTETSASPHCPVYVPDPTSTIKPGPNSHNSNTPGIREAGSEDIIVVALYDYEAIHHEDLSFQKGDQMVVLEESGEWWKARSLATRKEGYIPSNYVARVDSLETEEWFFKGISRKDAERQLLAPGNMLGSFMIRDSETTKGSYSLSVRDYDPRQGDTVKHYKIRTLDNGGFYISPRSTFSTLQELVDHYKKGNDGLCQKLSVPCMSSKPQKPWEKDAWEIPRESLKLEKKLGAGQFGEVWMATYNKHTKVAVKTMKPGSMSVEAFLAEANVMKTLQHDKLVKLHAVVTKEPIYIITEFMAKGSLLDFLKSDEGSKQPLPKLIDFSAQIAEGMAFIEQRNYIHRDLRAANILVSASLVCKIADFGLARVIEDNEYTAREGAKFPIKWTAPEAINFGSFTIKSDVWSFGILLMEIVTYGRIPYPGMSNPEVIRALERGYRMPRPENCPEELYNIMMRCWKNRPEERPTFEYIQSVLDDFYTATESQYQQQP

Where “and” joins values, the source holds several entries; their conditions need not be identical. Identical values can stand only once. The list shows a part of the results, in another mix than the full data. Calls of active or inactive are those of the source.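 The calls were made as follows: active = Hck-Nef kinase inhibition above about 50% (limit read from the data); inactive = inhibition below that limit.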

The target in the assay is Tyrosine-protein kinase HCK (Homo sapiens) (UniProt P08631). Briefly: inhibitors of Nef-activated human Hck kinase, primary screen, biochemical, Z-Lyte FRET, 384-well, Hck-YEEI (AID 463187).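 Also: 0% = DMSO with Hck plus Nef and 100% = Hck alone without Nef.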 The settings on record: Recombinant Hck-YEEI plus Nef, Z-Lyte FRET kinase assay; at 20 µM; hits give high values.
The inhibition is the change of the read-out against control, counted positive when it falls. With `Cc1ccc(NP(=O)(Oc2ccccc2)Oc2ccccc2)nc1`, the inhibition is inactive: -17.7%. In the case of `O=[N+]([O-])c1cc([N+](=O)[O-])c(CCNc2ccccc2)c([N+](=O)[O-])c1` it was inactive: -0.0803%; in that of `CCc1nc2c(n1)c1c(non1O)c1c2no[n+]1[O-]`, inactive: 0.615%. In the case of `CC(=O)N1C2C3N(C(C)=O)C1C1N(C(C)=O)C(C(N1C(C)=O)N3C(C)=O)N2C(C)=O` it was inactive: 0.314%.

As for `O=[N+]([O-])c1cccc2n[nH]nc12`, the inhibition is inactive: -20.8%. In the case of `COc1ccc(C2=NCC(CBr)S2)cc1` (stereo not given) it was inactive: -5.66%; in that of `Oc1ccccc1CNc1ccccn1`, inactive: 3.5%; in that of `Cc1c2non([O-])c-2c(C)[n+](=O)[n+]1[O-]`, inactive: -3.36%. The value for `O=C(NC(Sc1ccncn1)C(Cl)(Cl)Cl)c1ccccc1` (stereo not given) was inactive: 13.4%; that for `CC(C)CC(=O)NC(Sc1ccc(Cl)cc1)C(Cl)(Cl)Cl` (stereo not given) was inactive: 0.835%. For `Nc1cc(N)c2nonc2c1[N+](=O)[O-]`, the inhibition is inactive: 16.8%. In the case of `Clc1ccc(Cl)c(NC2=NCC(CBr)S2)c1` (stereo not given) it was inactive: -0.2%; in that of `CN1CCCC(OC(=O)C(c2ccccc2)c2ccccc2)C1` (stereo not given), inactive: 12.6%. In the case of `COc1ccccc1OP(=O)(Nc1ccc(C)cn1)Oc1ccccc1OC` it was inactive: 15.1%; in that of `Cc1ccc(OP(=O)(Nc2nccs2)Oc2ccc(C)cc2)cc1`, inactive: 15.4%. In the case of `Cc1ccc(N/C(=N/P(=O)(N2CCOCC2)N2CCOCC2)N2CCOCC2)cc1` it was inactive: 23.6%; in that of `NC(=O)c1cc([N+](=O)[O-])cc([N+](=O)[O-])c1N`, inactive: 13.8%; in that of `Nc1cccc2ccc([As](=O)(O)O)cc12`, inactive: 11.4%.

Take `CCN(N=Nc1nonc1N)c1nonc1N`: the inhibition is inactive: 0.647%. Take `CCOP(=O)(Nc1ccccc1)OCC`: the inhibition was inactive: -6.68% and inactive: 13.3%. In the case of `Cc1cc(SC(NC(=O)c2ccc(F)cc2)C(Cl)(Cl)Cl)ncn1` (stereo not given) it was inactive: 1.44%; in that of `Cc1ccc(NP(=O)(Oc2ccccc2F)Oc2ccccc2F)nc1`, inactive: -0.839%. On to `O=P(Nc1nc2ccc(Cl)cc2s1)(c1ccccc1)c1ccccc1`, for which the inhibition was inactive: 3.6%. In the case of `O=C(O)c1ccccc1[As](=O)(O)O` it was inactive: -9.01%; in that of `CC(=O)Nc1ccc([As](=O)(O)O)cc1`, inactive: 6.8%.
